Literature values, collected in patent US9700872B1, “Superpolar chromatographic stationary phases and extraction sorbents and their methods of synthesis” (THE FLORIDA INTERNATIONAL UNIVERSITY BOARD OF TRUSTEES, priority 2016, dated 2017).

Settings: octanol/water; Top 100 EPA Priority Pollutants (Table 2)

Log Kow: 3.3
SMILES: c1ccc2ccccc2c1 [Naphthalene]
